Experimental data taken from patent publication US20240415820A1, “COMBINATIONS FOR RETAINING FOLLICLES RESERVE” (SHEBA IMPACT LTD., priority 2021, published 2024).

Tested on: primordial follicles (PMF)
Assay: Ex vivo culture of neonatal mouse ovaries with PM, PMF counting (H&E)
Assay type: cell-based
Details: ex vivo ovaries of 12 days mice

SMILES: NP(=O)(O)N(CCCl)CCCl
- PMFs on day 7 of culture (PM 4 hours, with or without 400 nM Tem, FIG. 2A): 75±5.1
- PMFs on day 7 of culture (PM, with or without rAMH, FIG. 2B): 86±8.4
